Structures are written as SMILES.

Protein sequences, listed by entry. Tags and fused reporters are not part of them.
UniProt P31652, whole entry: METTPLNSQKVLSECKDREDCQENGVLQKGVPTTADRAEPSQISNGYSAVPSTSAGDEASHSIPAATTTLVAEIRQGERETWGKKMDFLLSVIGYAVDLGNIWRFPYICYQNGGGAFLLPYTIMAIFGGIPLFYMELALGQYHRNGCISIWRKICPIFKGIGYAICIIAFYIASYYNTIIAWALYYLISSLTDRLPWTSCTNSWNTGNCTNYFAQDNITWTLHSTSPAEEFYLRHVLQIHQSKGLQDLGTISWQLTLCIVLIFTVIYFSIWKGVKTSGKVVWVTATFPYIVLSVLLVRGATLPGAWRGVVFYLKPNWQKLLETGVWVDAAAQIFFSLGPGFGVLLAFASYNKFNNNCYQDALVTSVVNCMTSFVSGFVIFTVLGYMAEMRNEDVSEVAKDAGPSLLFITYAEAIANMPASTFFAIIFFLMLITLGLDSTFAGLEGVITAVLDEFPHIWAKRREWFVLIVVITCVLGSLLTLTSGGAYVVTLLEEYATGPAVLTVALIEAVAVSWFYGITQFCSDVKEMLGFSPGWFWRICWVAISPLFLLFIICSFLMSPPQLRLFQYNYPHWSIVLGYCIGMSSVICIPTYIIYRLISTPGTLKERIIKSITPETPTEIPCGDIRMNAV

The experiment addresses Sodium-dependent serotonin transporter (Rattus norvegicus, UniProt P31652). The experiment can be described thus: Displacement of [3H]paroxetine from 5HT reuptake site of rat cortical 5HTT. For orientation: Displacement assays read how much labelled ligand stays bound in the presence of the test substance.
Turning to `Fc1ccc2[nH]cc(CCCNC3COc4ccc5ncccc5c4C3)c2c1` (racemic), the inhibitory constant (Ki) was determined as 2.4 nM.
The same measure for `Fc1ccc2[nH]cc(CCCNC3COc4ccc5ncccc5c4C3)c2c1` (single isomer, unassigned; (-)): 5.1 nM.
`Fc1ccc2[nH]cc(CCCNC3COc4ccc5ncccc5c4C3)c2c1` (stereo in doubt; (+)-5) gave a Ki of 1.3 nM.

Broadly, the Ki is the dissociation constant of the complex between target and ligand, obtained from inhibition or displacement. Low values mean higher affinity, high ones lower affinity.

The values above are taken from ChEMBL document CHEMBL1147955, “Novel pyridyl-fused 3-amino chroman derivatives with dual action at serotonin transporter and 5-HT1A receptor” (Bioorg Med Chem Lett, 2007).
